Experimental data from patent publication US20230064983A1 (priority 2020, published 2023).

Amino acid sequences for entries named in this document (tags omitted). Chains listed by the source or under a name are the forms on record and can include a tag or linker. Residues count along the entry.
UniProt P00533, with tags, fused parts or gaps DUP768-770: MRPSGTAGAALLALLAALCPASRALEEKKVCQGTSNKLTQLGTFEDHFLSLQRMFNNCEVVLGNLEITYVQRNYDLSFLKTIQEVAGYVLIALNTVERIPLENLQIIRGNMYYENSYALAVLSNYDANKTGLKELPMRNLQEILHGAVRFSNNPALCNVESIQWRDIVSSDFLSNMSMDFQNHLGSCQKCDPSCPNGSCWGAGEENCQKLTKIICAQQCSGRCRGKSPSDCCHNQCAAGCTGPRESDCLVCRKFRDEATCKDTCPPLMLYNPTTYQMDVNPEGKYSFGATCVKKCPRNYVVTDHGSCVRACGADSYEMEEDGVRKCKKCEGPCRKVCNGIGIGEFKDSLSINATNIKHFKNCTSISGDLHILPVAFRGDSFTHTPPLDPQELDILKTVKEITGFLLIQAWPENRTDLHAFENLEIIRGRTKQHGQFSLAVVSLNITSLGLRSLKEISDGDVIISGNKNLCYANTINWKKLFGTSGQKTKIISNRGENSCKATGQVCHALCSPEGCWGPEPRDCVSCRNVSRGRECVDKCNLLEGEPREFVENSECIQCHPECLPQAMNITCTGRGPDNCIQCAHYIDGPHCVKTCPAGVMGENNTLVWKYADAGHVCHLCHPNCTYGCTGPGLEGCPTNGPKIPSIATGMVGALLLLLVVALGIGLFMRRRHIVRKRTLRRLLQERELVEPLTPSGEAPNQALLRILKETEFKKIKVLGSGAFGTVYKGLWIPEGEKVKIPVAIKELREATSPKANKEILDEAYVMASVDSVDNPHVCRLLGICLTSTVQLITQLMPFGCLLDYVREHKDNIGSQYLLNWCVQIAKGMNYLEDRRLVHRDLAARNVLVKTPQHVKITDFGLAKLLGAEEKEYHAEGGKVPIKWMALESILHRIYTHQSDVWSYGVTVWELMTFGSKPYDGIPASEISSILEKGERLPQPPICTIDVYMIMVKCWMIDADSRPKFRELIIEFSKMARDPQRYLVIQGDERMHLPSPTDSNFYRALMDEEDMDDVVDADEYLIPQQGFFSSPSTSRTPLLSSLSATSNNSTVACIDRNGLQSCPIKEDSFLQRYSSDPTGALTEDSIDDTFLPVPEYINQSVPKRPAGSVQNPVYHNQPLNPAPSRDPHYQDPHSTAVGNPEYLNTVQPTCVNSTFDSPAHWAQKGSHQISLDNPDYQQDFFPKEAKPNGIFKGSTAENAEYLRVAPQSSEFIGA
UniProt P00533, whole entry: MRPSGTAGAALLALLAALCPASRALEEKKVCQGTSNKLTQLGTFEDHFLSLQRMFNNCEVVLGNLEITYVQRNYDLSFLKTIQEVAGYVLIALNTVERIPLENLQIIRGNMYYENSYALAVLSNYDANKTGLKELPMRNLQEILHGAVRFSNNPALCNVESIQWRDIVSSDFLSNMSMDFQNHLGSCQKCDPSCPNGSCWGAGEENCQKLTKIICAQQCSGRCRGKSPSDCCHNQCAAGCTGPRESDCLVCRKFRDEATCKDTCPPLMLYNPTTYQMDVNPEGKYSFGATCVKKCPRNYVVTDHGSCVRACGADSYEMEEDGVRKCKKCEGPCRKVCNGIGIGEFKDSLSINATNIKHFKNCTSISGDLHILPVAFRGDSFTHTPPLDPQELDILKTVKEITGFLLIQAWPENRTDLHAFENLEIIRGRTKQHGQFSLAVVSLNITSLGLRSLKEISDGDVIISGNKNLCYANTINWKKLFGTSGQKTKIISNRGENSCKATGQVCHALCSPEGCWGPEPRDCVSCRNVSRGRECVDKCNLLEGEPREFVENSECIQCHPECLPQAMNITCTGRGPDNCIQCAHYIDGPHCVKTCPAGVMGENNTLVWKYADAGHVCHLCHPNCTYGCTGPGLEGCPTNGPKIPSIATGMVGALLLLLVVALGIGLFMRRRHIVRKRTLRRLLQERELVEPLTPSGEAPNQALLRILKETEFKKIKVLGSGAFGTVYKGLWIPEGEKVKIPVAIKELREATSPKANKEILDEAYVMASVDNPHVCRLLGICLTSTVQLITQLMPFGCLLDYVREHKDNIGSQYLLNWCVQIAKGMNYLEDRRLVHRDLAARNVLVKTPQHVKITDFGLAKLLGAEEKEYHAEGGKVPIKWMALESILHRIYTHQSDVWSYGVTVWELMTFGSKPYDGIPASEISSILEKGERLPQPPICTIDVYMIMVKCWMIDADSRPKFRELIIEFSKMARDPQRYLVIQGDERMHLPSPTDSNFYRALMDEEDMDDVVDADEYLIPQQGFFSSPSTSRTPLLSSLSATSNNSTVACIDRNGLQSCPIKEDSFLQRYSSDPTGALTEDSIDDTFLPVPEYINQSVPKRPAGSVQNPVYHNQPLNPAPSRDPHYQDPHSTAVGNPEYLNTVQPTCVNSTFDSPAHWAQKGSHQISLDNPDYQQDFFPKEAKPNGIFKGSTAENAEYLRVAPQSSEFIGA
UniProt P00533, 669-1210 with tags or gaps DUP768-770 limits assumed: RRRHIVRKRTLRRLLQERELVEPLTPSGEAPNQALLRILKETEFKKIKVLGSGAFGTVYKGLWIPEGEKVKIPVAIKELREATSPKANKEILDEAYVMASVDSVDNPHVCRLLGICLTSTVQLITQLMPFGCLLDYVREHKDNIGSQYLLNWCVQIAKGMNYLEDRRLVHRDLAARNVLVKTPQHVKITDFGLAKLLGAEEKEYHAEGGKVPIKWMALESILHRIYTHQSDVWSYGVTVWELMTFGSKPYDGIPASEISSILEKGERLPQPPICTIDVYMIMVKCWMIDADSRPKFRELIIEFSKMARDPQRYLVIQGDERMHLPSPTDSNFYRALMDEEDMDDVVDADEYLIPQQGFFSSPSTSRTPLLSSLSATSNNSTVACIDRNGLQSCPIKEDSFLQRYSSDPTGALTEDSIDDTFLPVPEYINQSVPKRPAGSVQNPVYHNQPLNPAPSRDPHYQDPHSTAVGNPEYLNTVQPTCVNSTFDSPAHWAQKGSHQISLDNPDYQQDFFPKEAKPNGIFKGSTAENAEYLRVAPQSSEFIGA

Key:
[1] = biological target: Ba/F3-EGFR-D770_N771insSVD cells (Homo sapiens, UniProt P00533, DUP768-770, cells depend on it); assay: Ba/F3 cell survival assay, EGFR D770_N771insSVD; settings: read-out: BA/F3 (insSVD) IC50; prior art compounds of WO 2016/120196; Table 5
[2] = biological target: EGFR with insertion SVD between D770 and N771 (mutEGFR D770_N771insSVD) (Homo sapiens, UniProt P00533, DUP768-770); assay: Exon20-Mutant-EGFR(D770_N771insSVD) kinase assay (TR-FRET); type: biochemical; settings: read-out: mutEGFR (D770_N771insSVD) kinase assay IC50; prior art compounds of WO 2016/120196; Table 5
Ba/F3-EGFR-WT cells = Ba/F3-EGFR-WT cells (Homo sapiens, UniProt P00533); assay: Ba/F3 cell survival assay, wild type EGFR; settings: read-out: BA/F3 (wild type) IC50; prior art compounds of WO 2016/120196; Table 5

Compound | GI50 [1] [µM] | IC50 [2] [µM] | GI50 (Ba/F3-EGFR-WT cells) [µM]
O=C1NCCc2[nH]c(-c3ccncc3OCC3CC3)c(Nc3ccc(F)cc3)c21 | > 2 |  | 
CC1(C)Cc2[nH]c(-c3ccncc3)c(Nc3ccccc3)c2C(=O)N1 | > 1 | 0.2 | 1.53
COCCOc1cnccc1-c1[nH]c2c(c1Nc1ccc(F)c(F)c1)C(=O)NCC2 | > 2 |  | 
O=C1NCCc2[nH]c(-c3ccncc3OCC(F)F)c(Nc3cccc(F)c3)c21 | > 2 |  | 
